What follows are molecules tested against Hsp90 chaperone machinery present in rabbit reticulocyte lysate (assay: Hsp90-dependent refolding of thermally denatured luciferase in rabbit reticulocyte lysate (high-throughput screen and titration)). Conditions: estimate; titration from 25 µg/mL in three-fold dilutions, repeated twice; rabbit reticulocyte lysate.
Format: biochemical
Experimental: Rabbit reticulocyte lysate, prepared by lysing one volume of packed reticulocytes in two volumes of deionized water, followed by centrifugation for twenty minutes at 15,000 × g, was purchased from Green Hectares (Oregon, WI, USA).
Recombinant luciferase from Promega was diluted to 0.5 mg/mL in buffer consisting of 25 mM Tricine–HCl (pH 7.8), 8 mM MgSO4, 0.1 mM EDTA, and 10 mg/mL acetylated BSA. Next, the solution was adjusted to include 10% glycerol and 1% Triton X-100. Finally, the luciferase solution was heated to ~41°. Once the activity of the luciferase reached ~1% of its initial value, the mixture was placed on ice, or flash frozen in liquid nitrogen and placed at −80° for storage.
To prepare the denatured luciferase for use in re-folding assays, 125 µL of the 0.5 mg/mL mixture was added into a 10 mL mixture containing 80 mM Tris HCl, pH 7.7, 8 mM Mg(OAc)2, 300 mM KCl, 12 mM ATP, and 20 mM creatine phosphate, and 0.8 mg/mL creatine phosphokinase.
The assay buffer, which contains the luciferase substrate luciferin, consisted of 75 mM Tricine-HCl, pH 7.8, 24 mM MgSO4, 300 µM EDTA, 2 mM DTT, 313 µM D-luciferin, 640 µM coenzyme A, 660 µM ATP, 150 mM KCl, 10% (v/v) Triton X-100, 20% (v/v) glycerol, and 3.5% DMSO.
The libraries were screened for compounds that inhibited the refolding of thermally denatured luciferase using a high-throughput assay carried out with a slight modification of the method previously described. Briefly, compounds were reconstituted in 100% DMSO. Stocks of compounds purchased from Microsource, TimTec, Biofocus and BioMol were reconstituted to a concentration of 1 mg/mL. The stocks were diluted 40-fold into nano-pure water with the compounds being used at a final concentration of 12.5 µg/mL for the assay. Analyticon compounds (0.2 µmol) were reconstituted to a concentration of 4 mM, and were used at a final concentration of 40 µM in the assay. Assays were performed in 96-well microplates. To each well was added 30 µL of the water/DMSO compound solution, 15 µL of the reticulocyte lysate preparation, and 15 µL of the luciferase reagent. The plates were agitated and then allowed to incubate at 25 °C for one to three hours. After the incubation, 60 µL of assay buffer containing luciferin was added to each well. The plates were then read in a Molecular Devices LMaxII^384 microplate reader, and luminescence was measured in relative light units, with an integration time of 10 s. Compounds that inhibited luciferase refolding by approximately fifty percent or greater were then titrated into a refolding reaction containing native luciferase, to eliminate false positive hits that were direct inhibitors of luciferase as previously described. Compounds were classified as a potential Hsp90 inhibitor if they inhibited luciferase refolding by 60% or greater and there was no inhibition of the activity of native luciferase at the compound’s IC50 (concentration of the compound that inhibits luciferase refolding by 50%).
The titrations were repeated twice. For a more accurate determination of the IC50s for the compounds studied in Section 3.2.1 of this manuscript, a two-fold […] series of the compounds were used in triplicate, with the experiment being repeated three times.
With `COc1cc2c(cc1O)C[C@H]1c3c(cc(OC)c(O)c3-2)CCN1C` [Compound 63, Isoboldine] the IC50 was 30 to 80 µM.
With `COc1cc(O[C@@H]2O[C@H](CO)[C@@H](O)[C@H](O)[C@H]2O)c2c(O)c(C(C)=O)c(C)cc2c1` [Compound 20, Torachrysone 8-O-Glucoside] the IC50 was roughly 25 µM.
Molecule `CC(C)=CCc1cc2c(c(CC=C(C)C)c1O)OCC1c3ccc(O)cc3OC21` (centres unmarked) [Compound 112] has an IC50 of roughly 50 µM.
`COc1ccc(-c2oc3ccc(C)cc3c(=O)c2O)cc1OC` [Compound 30, 3',4'-Dimethoxy-3-hydroxy-6-methylflavone] gave an IC50 of 30 to 80 µM.
`COc1cccc2oc(-c3ccccc3)cc(=O)c12` [Compound 24, 5-Methoxyflavone] gave an IC50 of roughly 100 µM.
`CC(=O)OC1C=C(CO)C(=O)C(OC(=O)CC(C)C)C1C(C)C` (centres unmarked) [Compound 102] gave an IC50 of roughly 50 µM.
`CC(=O)O[C@@H]1C[C@@H]2[C@@]3(C)CCCC(C)(C)[C@@H]3CC[C@@]2(C)[C@]2(O)C=C(C=O)[C@H](C=O)[C@@]12C` [Compound 11, Scalaradial, 12-epi-] was tested, and the IC50 was 40 to 60 µM.
`C[C@H]1c2ccoc2CC2[C@H]1CCC1[C@@](C)(CC(=O)O)CCC[C@]21C` (stereo partly drawn) [Compound 95, 2-((4R,6aS,7R,11bR)-4,7,11b-trimethyl-1,2,3,4,4a,5,6,6a,7,11,11a,11b-dodecahydro-phenanthro[3,2-b]furan-4-yl) acetic acid] was tested, and the IC50 was greater than 75 µM.
`Cc1cc(O)c2c(=O)c3c(O)cc(O)c4c5c(O)cc(O)c6c(=O)c7c(O)cc(C)c8c1c2c(c34)c(c78)c65` [Compound 115, Hypericin] showed an IC50 of 50 to 75 µM.
Work on `O=C(OC[C@H]1O[C@@H](OC(=O)c2cc(O)c(O)c(OC(=O)c3cc(O)c(O)c(O)c3)c2)[C@H](OC(=O)c2cc(O)c(O)c(OC(=O)c3cc(O)c(O)c(O)c3)c2)[C@@H](OC(=O)c2cc(O)c(O)c(OC(=O)c3cc(O)c(O)c(O)c3)c2)[C@@H]1OC(=O)c1cc(O)c(O)c(OC(=O)c2cc(O)c(O)c(O)c2)c1)c1cc(O)c(O)c(OC(=O)c2cc(O)c(O)c(O)c2)c1` [Compound 22, Tannic acid] yielded an IC50 of roughly 5 µM.
`CC(=O)OC1CC2C(COC(=O)CC(C)C)=COC(OC(=O)C(C)C)C2C1(O)CCl` (centres unmarked) [Compound 101] gave an IC50 of roughly 50 µM.
In the case of `COc1ccc2cc3[n+](cc2c1OC)CCc1cc2c(cc1-3)OCO2` [Compound 71, Berberine], the IC50 is reported as roughly 40 µM.
`O=C1CC(c2ccccc2)Oc2c(Cc3cccc(O)c3O)c(O)c(Cc3cccc(O)c3O)c(O)c21` (centres unmarked) [Compound 25] gave an IC50 of roughly 70 µM.
`COc1ccc(-c2coc3cc(O)cc(O)c3c2=O)cc1` [Compound 28, 5,7-dihydroxy-3-(4-methoxyphenyl)-chromen-4-one] showed an IC50 greater than 90 µM.
`COc1cc(C/C=C/c2ccccc2)c(OC)cc1O` [Compound 46, Violastyrene] showed an IC50 of roughly 20 µM.
For `Cc1c(O)c2c(c(C(=O)/C=C/c3ccccc3)c1O)OC(C)(C)C=C2` [Compound 42, [6-methyl-5,7-dihydroxy-2,2-dimethylchromen-8-yl]-3-phenylprop-2-en-1-one], the IC50 was roughly 60 µM.
Cyclopeptide L-156373 [Compound 77] gave an IC50 of roughly 10 µM.
`COc1cc2c(cc1OC)-c1c(OC)c(OC)cc3ccnc(c13)C2=O` [Compound 65, 7-oxoglaucine] showed an IC50 of roughly 80 µM.
Molecule `CN1CC[C@@]2(C)c3cc(O)ccc3N(C)[C@@H]12` [Compound 56, (−)-Eseroline] has an IC50 of 50 to 90 µM.
For `C=C1C(=O)O[C@@H]2/C=C(\C)C(OC(C)=O)C/C=C(\C)CC(OC(=O)/C(=C/COC(C)=O)COC(C)=O)C12` (some centres unmarked) [Compound 7], the IC50 was roughly 30 µM.
In the case of `COC(=O)/C(C)=C\CC12OC(C)(C)C3CC(C=C4C(=O)c5c(OC)c6c(c(CC=C(C)C)c5OC431)OC(C)(CCC=C(C)C)C=C6)C2=O` (centres unmarked) [Compound 37, Dimethyl Gambogate], the IC50 is reported as roughly 2 µM.
`CC(C)/C=C1\NC(=O)C(C(C)C)n2c1nc1ccccc1c2=O` (centres unmarked) [Compound 53, (Z)-4-isopropyl-1-(2-methylpropylidene)-1,2-dihydro-6H-pyrazino[2,1-b]quinazoline-3,6(4H)-dione] was tested, and the IC50 was roughly 60 µM.
`CCCCCc1cc2cc(O)cc(Oc3c(O)cc(O)cc3CCCCC)c2c(=O)o1` [Compound 33] gave an IC50 of roughly 65 µM.
`CC(C)c1ccc2c(c1)CCC1[C@](C)(CN)CCC[C@]21C` (single isomer, unassigned; (+)) [Compound 96, (+)-Dehydroabietylamine] showed an IC50 of 30 to 75 µM.
For `CC(C)=CCc1c(O)cc2occ(-c3ccc4c(c3)OCO4)c(=O)c2c1O` [Compound 38, Derrubone], the IC50 was roughly 0.2 µM.
Molecule `O=C1c2ccccc2C(=O)c2c(O)c(O)cc(O)c21` [Compound 86, 1,2,4-trihydroxyanthracene-9,10-dione] has an IC50 of 40 to 100 µM.
Work on `C/C=C/C=C/C=C/C(=O)O[C@@H]1C=C2COC(=O)[C@]2(O)[C@@]2(C)CCCC(C)(C)[C@H]12` [Compound 4] yielded an IC50 of roughly 60 µM.
Work on `O=C(c1cc(Br)c(O)c(Br)c1)c1c(-c2cc(Br)c(O)c(Br)c2)c(-c2cc(Br)c(O)c(Br)c2)c(C(=O)c2cc(Br)c(O)c(Br)c2)n1CCc1ccc(O)cc1` [Compound 21, Polycitone A] yielded an IC50 of 10 to 20 µM.
Work on `O=C(/C=C/c1ccc(O)cc1)c1ccccc1O` [Compound 41, 2',4-Dihydroxychalone] yielded an IC50 of roughly 120 µM.
Work on `C=C1C(=O)O[C@@H]2[C@H]3C(C)=CC[C@H]3C(=C)C[C@@H](OC(=O)/C(=C/CO)CO)[C@@H]12` [Compound 3] yielded an IC50 of roughly 40 µM.
Molecule `COc1ccc2oc(-c3cccc(OC)c3OC)cc(=O)c2c1` [Compound 29, 2-(2,3-Dimethoxyphenyl)-6-methoxy-4H-chromen-4-one] has an IC50 greater than 90 µM.
In the case of `CC1=CC(=O)c2c(O)cccc2C1=O` [Compound 84, Plumbagin], the IC50 is reported as less than 0.05 µM.
`COc1cccc2c1C(=O)c1c(O)c3c(c(O)c1C2=O)C[C@@](O)([C@@H](C)O)C[C@@H]3O` [Compound 88, Dihydodaunomycinone] showed an IC50 greater than 60 µM.
`COc1c(O)cc2oc3cc(O)c(CC=C(C)C)c(O)c3c(=O)c2c1CC=C(C)C` [Compound 32, 1,7-bis(3-methylbut-2-enyl)-3,6,8-trihydroxy-2-methoxy-xanthen-9-one] was tested, and the IC50 was roughly 60 µM.
In the case of `C/C=C(\C)C(=O)O[C@H]1C(=O)C(CO)=C[C@H](OC(C)=O)[C@@H]1C(C)C` [Compound 107], the IC50 is reported as roughly 15 µM.
Molecule `C=C1C2CCC3C(CCC4[C@@]3(C)CCC[C@@]4(C)C(=O)O)(C2)[C@@H]1OC(=O)/C(C)=C\C` (stereo partly drawn) [Compound 105, (4R,7R,11bS)-4,11b-dimethyl-7-(((Z)-2-methylbut-2-enoyl)oxy)-8-methylenetetradecahydro-6a,9-methanocyclohepta[a]naphthalene-4-carboxylic acid] has an IC50 of roughly 40 µM.
Molecule `C=C1C(=O)OC2C1C(OC(=O)C(C)(O)CC)C(OC(C)=O)C(C(=O)OC)=CCCC1(C)OC21` (centres unmarked) [Compound 2] has an IC50 of roughly 40 µM.
`COc1c(C)c(O)c(C)c(O)c1C(=O)/C=C/c1ccccc1` [Compound 44, Dimethyl cardamonin] showed an IC50 of roughly 70 µM.
With `N=c1ccn2c(n1)O[C@H]1[C@H](O)[C@H](CO)O[C@H]12` [Compound 55, (2S,3R,3aS,9aR)-2-(hydroxymethyl)-6-imino-2,3,3a,9a-tetrahydro-6H-furo[2',3':4,5]oxazolo[3,2-a] pyrimidin-3-ol] the IC50 was roughly 50 µM.
`CCCCCC(O)/C=C/[C@H]1C(=O)C=C[C@@H]1C/C=C\CCCC(=O)O` (some centres unmarked) [Compound 114, Prostaglandin J2] gave an IC50 of 75 to 100 µM.
`C=CC1CN2CCC1CC2C(O)c1ccnc2ccccc12` (single isomer, unassigned; (+)) [Compound 54, (+)-Cinchonine] gave an IC50 of roughly 30 µM.
For `CC(=O)O[C@@H]1C[C@@]2(C)[C@H](c3ccoc3)C[C@H]3O[C@]32[C@]2(C)C(=O)C(O)=C3C(C)(C)C(=O)C=C[C@]3(C)[C@@H]12` [Compound 50, Anthothecol], the IC50 was roughly 6 µM.
With `COc1cc(/C=C/C(=O)CC(=O)/C=C/c2ccc(O)c(OC)c2)ccc1O` [Compound 40, Curcumin] the IC50 was roughly 70 µM.
`COc1cc2c(cc1O)-c1c(O)c(OC)cc3c1[C@H](C2)N(C)CC3` [Compound 64, Bracteoline] gave an IC50 of roughly 80 µM.
For `CC(C)=CCc1cc(C2CCc3ccc(O)cc3O2)c(CC=C(C)C)c(O)c1O` (centres unmarked) [Compound 18], the IC50 was roughly 60 µM.
For `O[C@@H]1CCN2Cc3ccccc3N=C12` [Compound 51, Peganine], the IC50 was roughly 130 µM.

Same assay, conditions: two-hour incubation; vs DMSO control; triplicate, repeated three times; read-out: IC50 luciferase refolding
`CC(=O)O[C@@H]1C[C@@]2(C)[C@H](c3ccoc3)C[C@H]3O[C@]32[C@]2(C)C(=O)C(O)=C3C(C)(C)C(=O)C=C[C@]3(C)[C@@H]12` [Compound 50, Anthothecol] was tested, and the IC50 was 12 ± 2 µM.
